From PMC7607171, “Optimized low‐dose combinatorial drug treatment boosts selectivity and efficacy of colorectal carcinoma treatment” (Molecular Oncology, 2020)
Several values for one entry are separate records, joined by “and”; a condition that tells them apart may be missing. Equal entries are not always repeated.

Legend:
[1] = Clinical plasma pharmacokinetics in patients, plasma concentration limit calculation; type: in vivo; settings: average plasma concentration calculated from AUC0-24h in patients
Protocol: To select for clinically relevant doses, the clinically attainable drug concentration measured in the blood plasma of patients after treatment is used to calculate the concentration limit for in vitro experiments. […] The average drug concentration is calculated from the AUC0–24h and is implemented as the plasma concentration limit (PCL) which drug dose selection must remain below for in vitro experiments. If a drug is FDA approved, the AUC0–24h selected is the one corresponding to the recommended dose in clinical practice. If a drug is in clinical trials, the AUC0–24h selected is the one corresponding to the maximum tolerated dose in early stage clinical trials. Note, experiments were conducted with the most current PCL calculated from the AUC0–24h information available at the start of experiments (December 2017), see Table S4.

[2] = 0-12h; 120 mg/kg twice daily, oral; cited from earlier work

AZD-4547
PCL (plasma concentration limit) [1]: 0.37 µM and 0.4 µM
AUC [2]: 2058(0-12h) µg*h/L [24]
